This experiment has as its target Delta-type opioid receptor (Mus musculus, UniProt P32300). Nature of the experiment: Agonist activity at mu opioid receptor in Hartley guinea pig ileum myenteric plexus longitudinal muscle assessed as inhibition of electrically-stimulated muscle contraction. The class given is functional, tissue-based.

Protein sequences, listed by entry. Tags and fused reporters are not part of them.
UniProt P32300, whole entry: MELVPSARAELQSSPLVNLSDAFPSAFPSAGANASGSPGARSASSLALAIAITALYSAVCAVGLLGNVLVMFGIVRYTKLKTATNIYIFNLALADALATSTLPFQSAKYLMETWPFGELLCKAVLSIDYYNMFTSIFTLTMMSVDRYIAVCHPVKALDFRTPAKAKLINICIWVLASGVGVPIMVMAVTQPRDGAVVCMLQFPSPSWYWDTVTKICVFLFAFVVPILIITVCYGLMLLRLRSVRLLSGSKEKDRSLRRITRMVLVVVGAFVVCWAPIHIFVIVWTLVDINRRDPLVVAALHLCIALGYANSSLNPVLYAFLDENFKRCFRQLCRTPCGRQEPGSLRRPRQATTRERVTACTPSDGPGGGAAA

Take `Cc1cc(O)cc(C)c1C[C@H](N)C(=O)N1Cc2ccccc2C[C@H]1C(=O)NCc1nc2ccccc2[nH]1`: the IC50 was determined as 0.13 nM.

Source of the values: ChEMBL document CHEMBL1156628, “Further studies on lead compounds containing the opioid pharmacophore Dmt-Tic” (J Med Chem, 2008).
